Data as given in patent publication US8697403B2, “Process and microorganisms for production of lipids from lignocellulosic wastes or residues” (Neste Oil Oyj, priority 2010, dated 2014).

Test system: S. milbemycinius GAL4211
Experiment: NTG mutagenesis of spore suspension, killing rate
Conditions: 10^7 spores/ml; NTG 1-3 mg/ml, pH buffers of 7-9, +30° C., 0.5-1 h

CN(N=O)C(=N)N[N+](=O)[O-]
Killing rates: 90-100%
